Values quoted from earlier work as cited in US6073962A (priority 1994, dated 2000).

System: mouse
Settings: literature value, British J. Pharmacol., Vol. 1, 1 (1949); cited from earlier work

**Q.** Which LD50 level does the source give for sodium azide here?
**A.** Its LD50 level is 27 mg/kg.
